Source: patent US10280144B2, “Pyridazine derivatives as RORc modulators” (Genentech, Inc., priority 2015, dated 2019)

Sequences of proteins named here, by UniProt entry; tags and fusion partners are left off. Residues count along the entry.
UniProt P51449, 269-508: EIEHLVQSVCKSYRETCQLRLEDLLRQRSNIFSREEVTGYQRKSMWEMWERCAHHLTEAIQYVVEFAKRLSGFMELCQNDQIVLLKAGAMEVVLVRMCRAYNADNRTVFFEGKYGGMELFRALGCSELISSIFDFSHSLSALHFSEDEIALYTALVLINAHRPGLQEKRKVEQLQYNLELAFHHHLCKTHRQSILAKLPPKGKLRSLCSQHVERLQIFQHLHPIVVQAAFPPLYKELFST

target: RORc ligand binding domain (Homo sapiens (Human), UniProt P51449); experiment: In Vitro RORc Ligand Binding Assay; conditions: radioligand 25-[3H]hydroxycholesterol

Compound | IC50 [µM]
CCN(C[C@@]12CC[C@@H](c3cc(-c4c(F)cccc4F)nnc31)C2(C)C)S(=O)(=O)Cc1ccc(F)cc1F [Compound 133, 1-(2,4-difluorophenyl)-N-(((5R,8S)-3-(2,6-difluorophenyl)-9,9-dimethyl-5,6,7,8-tetrahydro-5,8-methanocinnolin-8-yl)methyl)-N-ethylmethanesulfonamide] | 0.0026
CCN(C[C@@]12CC[C@@H](c3cc(-c4c(F)cccc4F)nnc31)C2(C)C)C(=O)C1CN(S(C)(=O)=O)C1 [Compound 92, N-(((5R,8S)-3-(2,6-difluorophenyl)-9,9-dimethyl-5,6,7,8-tetrahydro-5,8-methanocinnolin-8-yl)methyl)-N-ethyl-1-(methylsulfonyl)azetidine-3-carboxamide] | 0.0281
CCN(C[C@@]12CC[C@@H](c3cc(-c4c(F)cccc4F)nnc31)C2(C)C)C(=O)CN1C(=O)CNC1=O [Compound 104, N-(((5R,8S)-3-(2,6-difluorophenyl)-9,9-dimethyl-5,6,7,8-tetrahydro-5,8-methanocinnolin-8-yl)methyl)-2-(2,5-dioxoimidazolidin-1-yl)-N-ethylacetamide] | 0.08
CCN(C[C@@]12CC[C@@H](c3cc(-c4c(F)cccc4F)nnc31)C2(C)C)C(=O)c1ccc(-c2nnn(C)n2)cc1 [Compound 67, N-(((5R,8S)-3-(2,6-difluorophenyl)-9,9-dimethyl-5,6,7,8-tetrahydro-5,8-methanocinnolin-8-yl)methyl)-N-ethyl-4-(2-methyl-2H-tetrazol-5-yl)benzamide] | 0.0134

Next, values leading:

IC50 [µM] | Compound
0.0555 | CCN(C[C@@]12CC[C@@H](c3cc(-c4c(F)cccc4F)nnc31)C2(C)C)C(=O)c1ccc(-c2ncn[nH]2)cc1 [Compound 105, N-(((5R,8S)-3-(2,6-difluorophenyl)-9,9-dimethyl-5,6,7,8-tetrahydro-5,8-methanocinnolin-8-yl)methyl)-N-ethyl-4-(1H-1,2,4-triazol-5-yl)benzamide]
0.105 | CCN(C[C@@]12CC[C@@H](c3cc(-c4c(F)cccc4F)nnc31)C2(C)C)C(=O)c1nc2ccccc2c(=O)[nH]1 [Compound 89, N-(((5R,8S)-3-(2,6-difluorophenyl)-9,9-dimethyl-5,6,7,8-tetrahydro-5,8-methanocinnolin-8-yl)methyl)-N-ethyl-4-oxo-3,4-dihydroquinazoline-2-carboxamide]
0.0035 | CCN(C[C@@]12CC[C@@H](c3cc(-c4c(F)cccc4F)nnc31)C2(C)C)S(=O)(=O)Cc1ccccc1 [Compound 159, N-(((5R,8S)-3-(2,6-difluorophenyl)-9,9-dimethyl-5,6,7,8-tetrahydro-5,8-methanocinnolin-8-yl)methyl)-N-ethyl-1-phenylmethanesulfonamide]
0.0302 | CN(C(=O)OCc1ccccc1)[C@@]12CC[C@@H](c3cc(-c4c(F)cccc4F)nnc31)C2(C)C [Compound 3, benzyl ((5R,8R)-3-(2,6-difluorophenyl)-9,9-dimethyl-5,6,7,8-tetrahydro-5,8-methanocinnolin-8-yl)(methyl)carbamate]
0.024 | CCN(C[C@@]12CC[C@@H](c3cc(-c4c(F)cccc4F)nnc31)C2(C)C)C(=O)Cc1cnccn1 [Compound 37, N-(((5R,8S)-3-(2,6-difluorophenyl)-9,9-dimethyl-5,6,7,8-tetrahydro-5,8-methanocinnolin-8-yl)methyl)-N-ethyl-2-(pyrazin-2-yl)acetamide]
